Measurements taken from paper PMC8199245, “Serotonin Promotes Serum Albumin Interaction with the Monomeric Amyloid β Peptide” (International Journal of Molecular Sciences, 2021).

Assays:
Aβ = details: cited from earlier work
AD patients = details: plasma exchange with replacement by therapeutic HSA; cited from earlier work
Source text: An alternative, less invasive approach to the lowering of the free Aβ level in the brain is a pharmacologically guided shift in the equilibrium between HSA and Aβ towards their complex. The latter possibility was recently confirmed by arachidonic/linoleic-aci ...

Aβ in blood plasma = tested on: Aβ in blood plasma; parameters: method as in PMID 8955133; details: cited from earlier work
[1] = target: HSA–monomeric Aβ40 (recombinant human Aβ40) (Homo sapiens, UniProt P02768); experiment: SPR of HSA interaction with immobilized monomeric Aβ40, without/with SRO or TRP; details: read-out: KD (effective equilibrium dissociation constant); column head KD × 10^7, i.e. KD = value × 10^−7 M; HSA without ligand; SPR 25 °C, pH 7.4; HSA 5–60 µM; mean ± SD over HSA concentrations
Method: The recombinant human Aβ40 or Aβ42 sample was immobilized on the surface of the SPR sensor chip by amine coupling, followed by removal from the surface of the non-covalently bound Aβ molecules by a 2% SDS water solution [12]. […] (5–60 µM) was used as an analyte.
Aβ40/Aβ42 was immobilized on the sensor chip’s surface by amine coupling.
Recombinant human Aβ40/Aβ42 samples were pretreated for SPR measurements mainly as described in [46]. The freeze-dried Aβ sample was dissolved in neat TFA at a concentration of 0.5–1 mg/mL. The solution was sonicated for 30 s. TFA was evaporated using Eppendorf Concentrator plus. The dried Aβ sample was dissolved in DMSO at a concentration of 2 mg/mL, and stored at −20 °C.
SPR measurements were performed at 25 °C using a Bio-Rad ProteOn™ XPR36 instrument mainly as previously described. Ligand (57 μg/mL recombinant human Aβ40/Aβ42 in 10 mM sodium acetate, pH 4.5 buffer) was immobilized on a ProteOn GLH sensor chip surface (up to 7000–9000 RUs) by amine coupling. The remaining activated amine groups on the chip surface were blocked by 1 M ethanolamine solution. The non-covalently bound Aβ40/Aβ42 molecules were washed from the chip surface with 2% SDS water solution until stabilization of the signal. […] The sensor chip surface was regenerated by passage of 10 mM EDTA pH 7.9 solution containing 2% SDS. […]

## HSA: human serum albumin, 66.5 kDa; fatty-acid-free sample (Merck #126654) in the experiments
Aβ
  protection of Aβ from self-aggregation and cytotoxicity: effectively rescues Aβ from deleterious self-aggregation and cytotoxicity
  share of total amyloid inhibitory activity of plasma proteins: ~60%
AD patients
  memory and language functions: persistent improvements in the memory and language functions of the patients
Aβ in blood plasma
  fraction of Aβ bound to HSA in blood plasma: ~89%
[1]
  Kd: 60 ± 30 nM
